Results from patent US20250340595A1 (published 2025).
Read-outs that look alike come from different tables or passages of the source.

Chains of the proteins cited; added tags and fusions are not shown. Residues count along the entry.
UniProt P02786, 89-760 limits assumed: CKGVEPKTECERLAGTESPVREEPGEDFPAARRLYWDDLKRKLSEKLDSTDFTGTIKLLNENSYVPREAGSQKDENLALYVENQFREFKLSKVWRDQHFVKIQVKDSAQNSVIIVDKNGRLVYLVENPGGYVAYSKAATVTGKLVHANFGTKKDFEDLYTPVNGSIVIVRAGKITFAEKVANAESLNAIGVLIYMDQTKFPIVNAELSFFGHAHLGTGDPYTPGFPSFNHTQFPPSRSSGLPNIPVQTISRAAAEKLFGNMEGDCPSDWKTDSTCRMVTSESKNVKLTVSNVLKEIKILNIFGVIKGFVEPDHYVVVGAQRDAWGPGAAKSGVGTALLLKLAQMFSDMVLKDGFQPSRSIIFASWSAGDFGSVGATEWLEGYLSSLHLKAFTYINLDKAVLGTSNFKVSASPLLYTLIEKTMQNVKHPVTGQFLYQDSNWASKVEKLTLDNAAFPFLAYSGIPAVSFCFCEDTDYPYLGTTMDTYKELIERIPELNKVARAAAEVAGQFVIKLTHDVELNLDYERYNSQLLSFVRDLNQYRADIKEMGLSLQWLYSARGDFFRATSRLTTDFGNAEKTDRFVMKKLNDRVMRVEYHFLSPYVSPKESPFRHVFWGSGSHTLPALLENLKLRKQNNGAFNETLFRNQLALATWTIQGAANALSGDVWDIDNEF

Tests used:
[1] = target: T1, Human TfR1 protein (R&D Systems, 2474-TR or Acro Biosystems, CD1-H5243) (human, UniProt P02786 89-760); assay: FP competition, competitor BCY15768
[2] = target: T1, Human TfR1 protein (R&D Systems, …); assay: FP competition, competitor BCY15768; remark: listed apart in the source

B1: BCY17878 (peptide)
peptide: CSXDAHLGCISYC
modifications: 3 Cys on TATB; N-terminal [AzPro] azidopropyl; core as printed CS[HyP]DAHLGCISYC
- Ki [1]: 28 nM

B2: BCY17992 (peptide)
peptide: NWNCSPDAHLGCISYC
modifications: 3 Cys on TATB; N-terminal acetyl (Ac)
- Ki [1]: 11 nM

B3: BCY16044 (peptide)
peptide: ACSPDAHLGCXSYCA
modifications: 3 Cys on TATB; core as printed CSPDAHLGC[Cpg]SYC
- Ki [2]: 13900 nM

B4: BCY17989 (peptide)
peptide: CSXDAHLGCISYC
modifications: 3 Cys on TATB; N-terminal acetyl (Ac); core as printed CS[HyP]DAHLGCISYC
- Ki [1]: 24 nM

B5: BCY17109 (peptide)
peptide: NWNCSPDAHLGCISYCA
modifications: 3 Cys on TATB
- Ki [1]: 11 nM

B6: BCY17868 (peptide)
peptide: CSPDAHLGCISYCK
modifications: 3 Cys on TATB; N-terminal acetyl (Ac); C-terminal [K(N3)] 6-azido lysine
- Ki [1]: 23 nM

B7: BCY15892 (peptide)
peptide: CPGDAHLGCISYC
modifications: 3 Cys on TATB; N-terminal acetyl (Ac)
- Ki [2]: 63 nM
- Ki [1]: 63 nM

B8: BCY18032 (peptide)
peptide: NWNCSPDAHLGCISYC
modifications: 3 Cys on TATB; [NMeTrp] in N-terminal extension
- Ki [2]: 105 nM

B9: BCY16037 (peptide)
peptide: ACSPDAHXGCISYCA
modifications: 3 Cys on TATB; core as printed CSPDAH[Aib]GCISYC
- Ki [2]: 9220 nM
- Ki [1]: 9220 nM

B10: BCY17114 (peptide)
peptide: ACSPDAHLGCISYCEPW
modifications: 3 Cys on TATB
- Ki [1]: 32 nM

B11: BCY15939 (peptide)
peptide: ACSPDAHLGCISYCA
modifications: 3 Cys on TATB; N-terminal acetyl (Ac)
- Ki [2]: 125 nM
- Ki [1]: 125 nM

B12: BCY15890 (peptide)
peptide: CPQDAYLGCISWC
modifications: 3 Cys on TATB; N-terminal acetyl (Ac)
- Ki [2]: 47 nM

B13: BCY17120 (peptide)
peptide: ACSPDAHLGCISYCPIVH
modifications: 3 Cys on TATB
- Ki [2]: 52 nM
- Ki [1]: 52 nM

B14: BCY18035 (peptide)
peptide: NWNCSPDAHLGCISYC
modifications: 3 Cys on TATB; N-terminal acetyl (Ac); D-tryptophan [dW] in N-terminal extension
- Ki [1]: 17 nM

B15: BCY15893 (peptide)
peptide: CPPDSHLGCISYC
modifications: 3 Cys on TATB; N-terminal acetyl (Ac)
- Ki [2]: 44 nM
- Ki [1]: 44 nM

B16: BCY16042 (peptide)
peptide: ACSPDAHLGCXSYCA
modifications: 3 Cys on TATB; core as printed CSPDAHLGC[Cbg]SYC
- Ki [2]: 3450 nM
- Ki [1]: 3450 nM

B17: BCY18031 (peptide)
peptide: NWNCSPDAHLGCISYC
modifications: 3 Cys on TATB; D-tryptophan [dW] in N-terminal extension
- Ki [1]: 17 nM

B18: BCY17873 (peptide)
peptide: CSPDAHLGCISYCEPWK
modifications: 3 Cys on TATB; N-terminal acetyl (Ac); C-terminal [K(N3)] 6-azido lysine
- Ki [1]: 13 nM

B19: BCY16043 (peptide)
peptide: ACSPDAHLGCXSYCA
modifications: 3 Cys on TATB; core as printed CSPDAHLGC[Chg]SYC
- Ki [2]: 23600 nM

B20: BCY17874 (peptide)
peptide: CSPDAHLGCISYCEPW
modifications: 3 Cys on TATB; N-terminal [AzPro] azidopropyl
- Ki [1]: 13 nM

B21: BCY17880 (peptide)
peptide: CSXDAHLGCISYC
modifications: 3 Cys on TATB; N-terminal [AzPro] azidopropyl; core as printed CS[Aze]DAHLGCISYC
- Ki [1]: 29 nM

B22: BCY17872 (peptide)
peptide: NWNCSPDAHLGCISYC
modifications: 3 Cys on TATB; N-terminal [AzPro] azidopropyl
- Ki [1]: 14 nM

B23: BCY15894 (peptide)
peptide: CSADDWLGCISYC
modifications: 3 Cys on TATB; N-terminal acetyl (Ac)
- Ki [2]: 392 nM
- Ki [1]: 392 nM

B24: BCY16041 (peptide)
peptide: ACSPDAHLGCXSYCA
modifications: 3 Cys on TATB; core as printed CSPDAHLGC[C5g]SYC
- Ki [2]: 2190 nM
- Ki [1]: 2190 nM

B25: BCY17112 (peptide)
peptide: NEVCSPDAHLGCISYCA
modifications: 3 Cys on TATB
- Ki [2]: 47 nM
- Ki [1]: 47 nM
